Publication PMC7808739, “Repurposing existing drugs: identification of SARS-CoV-2 3C-like protease inhibitors” (Journal of Enzyme Inhibition and Medicinal Chemistry, 2021)

Biological target: SARS-CoV-2 3CLpro (Severe acute respiratory syndrome coronavirus 2, UniProt P0DTD1)
Format: biochemical

Structure (SMILES)	SARS-CoV-2 3CLpro inhibitor grade in words
O=C(O)COCCN1CCN(C(c2ccccc2)c2ccc(Cl)cc2)CC1 (centres unmarked) [Cetirizine]	moderate
CO[C@H]1C[C@@H]2CC[C@@H](C)[C@@](O)(O2)C(=O)C(=O)N2CCCC[C@H]2C(=O)O[C@H]([C@H](C)C[C@@H]2CC[C@@H](O)[C@H](OC)C2)CC(=O)[C@H](C)/C=C(\C)[C@@H](O)[C@@H](OC)C(=O)[C@H](C)C[C@H](C)/C=C/C=C/C=C/1C [Sirolimus (Rapamycin), Sirolimus]	moderate
